Data: ChEMBL document CHEMBL5131376, “Kinase Inhibitors as Underexplored Antiviral Agents” (J Med Chem, 2022)

Biological target: T1, Cyclin-G-associated kinase (Homo sapiens, UniProt O14976)
T1 sequence (O14976 whole entry): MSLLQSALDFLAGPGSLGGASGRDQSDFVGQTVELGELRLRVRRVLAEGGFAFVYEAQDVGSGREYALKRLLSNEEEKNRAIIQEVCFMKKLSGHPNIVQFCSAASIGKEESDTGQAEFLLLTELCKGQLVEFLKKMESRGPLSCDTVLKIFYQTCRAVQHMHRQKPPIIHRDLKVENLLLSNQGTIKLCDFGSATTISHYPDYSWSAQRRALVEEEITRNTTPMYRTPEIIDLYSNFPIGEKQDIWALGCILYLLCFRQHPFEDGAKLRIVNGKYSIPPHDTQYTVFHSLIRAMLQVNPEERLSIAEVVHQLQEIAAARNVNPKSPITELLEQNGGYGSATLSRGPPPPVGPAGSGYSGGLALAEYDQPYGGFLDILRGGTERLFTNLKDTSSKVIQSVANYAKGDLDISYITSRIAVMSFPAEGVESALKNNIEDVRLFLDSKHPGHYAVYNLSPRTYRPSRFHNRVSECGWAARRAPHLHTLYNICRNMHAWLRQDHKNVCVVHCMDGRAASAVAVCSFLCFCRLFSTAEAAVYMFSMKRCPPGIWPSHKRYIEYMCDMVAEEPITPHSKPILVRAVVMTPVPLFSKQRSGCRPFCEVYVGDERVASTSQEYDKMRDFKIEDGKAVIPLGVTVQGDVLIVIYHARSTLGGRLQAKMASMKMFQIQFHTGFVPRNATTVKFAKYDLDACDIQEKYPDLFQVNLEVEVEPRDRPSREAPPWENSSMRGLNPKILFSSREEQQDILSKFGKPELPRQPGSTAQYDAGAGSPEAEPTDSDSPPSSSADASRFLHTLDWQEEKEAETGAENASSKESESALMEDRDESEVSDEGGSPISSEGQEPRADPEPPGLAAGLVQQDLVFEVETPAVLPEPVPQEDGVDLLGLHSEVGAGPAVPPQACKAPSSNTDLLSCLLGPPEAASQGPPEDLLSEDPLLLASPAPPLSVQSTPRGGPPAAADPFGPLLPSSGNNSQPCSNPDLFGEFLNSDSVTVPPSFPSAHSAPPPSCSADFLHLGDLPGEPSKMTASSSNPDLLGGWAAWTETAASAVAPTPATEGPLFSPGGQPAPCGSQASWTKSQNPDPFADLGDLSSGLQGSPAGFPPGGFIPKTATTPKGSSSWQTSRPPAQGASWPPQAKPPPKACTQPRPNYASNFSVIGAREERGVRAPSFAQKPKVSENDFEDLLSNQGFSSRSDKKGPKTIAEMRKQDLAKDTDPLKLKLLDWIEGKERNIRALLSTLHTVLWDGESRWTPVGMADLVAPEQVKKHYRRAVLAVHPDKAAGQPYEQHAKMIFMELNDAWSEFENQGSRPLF
Experiment: Binding affinity to GAK (unknown origin) assessed as dissociation constant

`COc1cc(Nc2ccnc3ccc(Br)cc23)cc(OC)c1OC` showed a Kd of 3.1 nM.
